Reference: patent US4520101A (priority 1983, dated 1985)

Experiments:
[1] = test system: Cephalosporium acremonium; assay: Shake flask fermentation, inhibitors added to medium prior to sterilization (Example 3); conditions: Day 6
[2] = test system: Cephalosporium acremonium; assay: Shake flask fermentation, inhibitors added at 0, 48 and 96 hours after inoculation (Example 2)
[3] = test system: Cephalosporium acremonium; assay: 30 liter stirred tank fermentation (Example 4); conditions: 300 ppm added at 96 h
[4] = added at 0 hour, final conc. 100 ppm, Day 6
[5] = added at 0 hour, final conc. 100 ppm, Day 7
[6] = added at 0 hour, final conc. 200 ppm, Day 6
[7] = added at 0 hour, final conc. 200 ppm, Day 7
[8] = added at 0 hour, final conc. 400 ppm, Day 6
[9] = added at 0 hour, final conc. 400 ppm, Day 7
[10] = added at 0 hour, final conc. 800 ppm, Day 6
[11] = added at 0 hour, final conc. 800 ppm, Day 7
[12] = added at 48 hour, final conc. 100 ppm, Day 6
[13] = added at 48 hour, final conc. 100 ppm, Day 7
[14] = added at 48 hour, final conc. 200 ppm, Day 6
[15] = added at 48 hour, final conc. 200 ppm, Day 7
[16] = added at 48 hour, final conc. 400 ppm, Day 6
[17] = added at 48 hour, final conc. 400 ppm, Day 7
[18] = added at 48 hour, final conc. 800 ppm, Day 6
[19] = added at 48 hour, final conc. 800 ppm, Day 7
[20] = added at 96 hour, final conc. 100 ppm, Day 6
[21] = added at 96 hour, final conc. 100 ppm, Day 7
[22] = added at 96 hour, final conc. 200 ppm, Day 6
[23] = added at 96 hour, final conc. 200 ppm, Day 7
[24] = added at 96 hour, final conc. 400 ppm, Day 6
[25] = added at 96 hour, final conc. 400 ppm, Day 7
[26] = added at 96 hour, final conc. 800 ppm, Day 6
[27] = added at 96 hour, final conc. 800 ppm, Day 7

**Q.** With phosphorous acid as the compound, how does the “Ceph C” value ([1]; final conc. 200 ppm) read?
**A.** The value was 9,740 mcg/g.

**Q.** And the “Des Ceph C” value ([1]; final conc. 200 ppm)?
**A.** Its value is 600 µg/g.

**Q.** And the “Des Ceph C share of total ceph nucleus (head is drawing 6)” value (“Des Ceph C share … (head is drawing 6)” for short) ([1]; final conc. 200 ppm)?
**A.** Its value is 5.8.

**Q.** And the “Ceph C” value ([1]; final conc. 400 ppm)?
**A.** The value was 8,050 mcg/g.

**Q.** What about the “Des Ceph C” value ([1]; final conc. 400 ppm) of the same compound?
**A.** Its value is 340 µg/g.

**Q.** And the “Des Ceph C share … (head is drawing 6)” value ([1]; final conc. 400 ppm)?
**A.** Its value is 4.0.

**Q.** What about the “Ceph C” value ([1]; final conc. 800 ppm) of the same compound?
**A.** Its value is 7,111 mcg/g.

**Q.** And the “Des Ceph C” value ([1]; final conc. 800 ppm)?
**A.** The value was 285 µg/g.

**Q.** And the “Des Ceph C share … (head is drawing 6)” value ([1]; final conc. 800 ppm)?
**A.** The value was 3.8.

**Q.** And the “Ceph C” value [2, 4]?
**A.** The value was 11,810 mcg/g.

**Q.** And the “Des Ceph C” value [2, 4]?
**A.** Its value is 730 µg/g.

**Q.** What about the “Des Ceph C share of total ceph nucleus (head is drawing 3)” value (shortened to “Des Ceph C share … (head is drawing 3)”) [2, 4] of the same compound?
**A.** The value was 5.8.

**Q.** What about the “Ceph C” value [2, 5] of the same compound?
**A.** The value was 10,300 mcg/g.

**Q.** What about the “Des Ceph C” value [2, 5] of the same compound?
**A.** Its value is 925 µg/g.

**Q.** And the “Des Ceph C share of total ceph nucleus (head is drawing 4)” value (shortened to “Des Ceph C share … (head is drawing 4)”) [2, 5]?
**A.** The value was 8.2.

**Q.** And the “Ceph C” value [2, 6]?
**A.** The value was 10,540 mcg/g.

**Q.** And the “Des Ceph C” value [2, 6]?
**A.** Its value is 460 µg/g.

**Q.** And the “Des Ceph C share … (head is drawing 3)” value [2, 6]?
**A.** Its value is 4.2.

**Q.** And the “Ceph C” value [2, 7]?
**A.** The value was 11,585 mcg/g.

**Q.** And the “Des Ceph C” value [2, 7]?
**A.** The value was 935 µg/g.

**Q.** And the “Des Ceph C share … (head is drawing 4)” value [2, 7]?
**A.** The value was 7.4.

**Q.** What about the “Ceph C” value [2, 8] of the same compound?
**A.** Its value is 9,940 mcg/g.

**Q.** And the “Des Ceph C” value [2, 8]?
**A.** Its value is 350 µg/g.

**Q.** And the “Des Ceph C share … (head is drawing 3)” value [2, 8]?
**A.** The value was 3.4.

**Q.** What about the “Ceph C” value [2, 9] of the same compound?
**A.** The value was 10,240 mcg/g.

**Q.** And the “Des Ceph C” value [2, 9]?
**A.** The value was 500 µg/g.

**Q.** What about the “Des Ceph C share … (head is drawing 4)” value [2, 9] of the same compound?
**A.** The value was 4.6.

**Q.** What about the “Ceph C” value [2, 10] of the same compound?
**A.** Its value is 10,600 mcg/g.

**Q.** What about the “Des Ceph C” value [2, 10] of the same compound?
**A.** The value was 390 µg/g.

**Q.** What about the “Des Ceph C share … (head is drawing 3)” value [2, 10] of the same compound?
**A.** Its value is 3.5.

**Q.** What about the “Ceph C” value [2, 11] of the same compound?
**A.** The value was 10,335 mcg/g.

**Q.** And the “Des Ceph C” value [2, 11]?
**A.** Its value is 425 µg/g.

**Q.** What about the “Des Ceph C share … (head is drawing 4)” value [2, 11] of the same compound?
**A.** Its value is 3.9.

**Q.** And the “Ceph C” value [2, 12]?
**A.** Its value is 10,300 mcg/g.

**Q.** And the “Des Ceph C” value [2, 12]?
**A.** The value was 710 µg/g.

**Q.** What about the “Des Ceph C share … (head is drawing 3)” value [2, 12] of the same compound?
**A.** The value was 6.4.

**Q.** And the “Ceph C” value [2, 13]?
**A.** The value was 9,370 mcg/g.

**Q.** What about the “Des Ceph C” value [2, 13] of the same compound?
**A.** The value was 820 µg/g.

**Q.** What about the “Des Ceph C share … (head is drawing 4)” value [2, 13] of the same compound?
**A.** Its value is 8.0.

**Q.** And the “Ceph C” value [2, 14]?
**A.** Its value is 9,895 mcg/g.

**Q.** What about the “Des Ceph C” value [2, 14] of the same compound?
**A.** The value was 535 µg/g.

**Q.** And the “Des Ceph C share … (head is drawing 3)” value [2, 14]?
**A.** The value was 5.1.

**Q.** What about the “Ceph C” value [2, 15] of the same compound?
**A.** Its value is 9,950 mcg/g.

**Q.** And the “Des Ceph C” value [2, 15]?
**A.** The value was 710 µg/g.

**Q.** And the “Des Ceph C share … (head is drawing 4)” value [2, 15]?
**A.** The value was 6.6.

**Q.** And the “Ceph C” value [2, 16]?
**A.** Its value is 10,030 mcg/g.

**Q.** And the “Des Ceph C” value [2, 16]?
**A.** Its value is 405 µg/g.

**Q.** And the “Des Ceph C share … (head is drawing 3)” value [2, 16]?
**A.** The value was 3.8.

**Q.** And the “Ceph C” value [2, 17]?
**A.** Its value is 9,305 mcg/g.

**Q.** What about the “Des Ceph C” value [2, 17] of the same compound?
**A.** Its value is 480 µg/g.

**Q.** And the “Des Ceph C share … (head is drawing 4)” value [2, 17]?
**A.** Its value is 4.9.

**Q.** What about the “Ceph C” value [2, 18] of the same compound?
**A.** The value was 9,200 mcg/g.

**Q.** What about the “Des Ceph C” value [2, 18] of the same compound?
**A.** The value was 355 µg/g.

**Q.** What about the “Des Ceph C share … (head is drawing 3)” value [2, 18] of the same compound?
**A.** The value was 3.7.

**Q.** What about the “Ceph C” value [2, 19] of the same compound?
**A.** Its value is 9,180 mcg/g.

**Q.** What about the “Des Ceph C” value [2, 19] of the same compound?
**A.** The value was 470 µg/g.

**Q.** What about the “Des Ceph C share … (head is drawing 4)” value [2, 19] of the same compound?
**A.** Its value is 4.8.

**Q.** What about the “Ceph C” value [2, 20] of the same compound?
**A.** Its value is 8,355 mcg/g.

**Q.** What about the “Des Ceph C” value [2, 20] of the same compound?
**A.** The value was 755 µg/g.

**Q.** What about the “Des Ceph C share … (head is drawing 3)” value [2, 20] of the same compound?
**A.** Its value is 8.3.

**Q.** And the “Ceph C” value [2, 21]?
**A.** The value was 10,240 mcg/g.

**Q.** And the “Des Ceph C” value [2, 21]?
**A.** The value was 1,430 mcg/g.

**Q.** And the “Des Ceph C share … (head is drawing 4)” value [2, 21]?
**A.** Its value is 12.2.

**Q.** And the “Ceph C” value [2, 22]?
**A.** Its value is 7.670 µg/g.

**Q.** What about the “Des Ceph C” value [2, 22] of the same compound?
**A.** The value was 670 µg/g.

**Q.** What about the “Des Ceph C share … (head is drawing 3)” value [2, 22] of the same compound?
**A.** Its value is 8.0.

**Q.** What about the “Ceph C” value [2, 23] of the same compound?
**A.** Its value is 9,605 mcg/g.

**Q.** What about the “Des Ceph C” value [2, 23] of the same compound?
**A.** The value was 975 µg/g.

**Q.** What about the “Des Ceph C share … (head is drawing 4)” value [2, 23] of the same compound?
**A.** The value was 9.2.

**Q.** And the “Ceph C” value [2, 24]?
**A.** Its value is 7,830 mcg/g.

**Q.** And the “Des Ceph C” value [2, 24]?
**A.** Its value is 640 µg/g.

**Q.** What about the “Des Ceph C share … (head is drawing 3)” value [2, 24] of the same compound?
**A.** The value was 7.5.

**Q.** And the “Ceph C” value [2, 25]?
**A.** Its value is 8,645 mcg/g.

**Q.** What about the “Des Ceph C” value [2, 25] of the same compound?
**A.** Its value is 705 µg/g.

**Q.** What about the “Des Ceph C share … (head is drawing 4)” value [2, 25] of the same compound?
**A.** Its value is 7.5.

**Q.** What about the “Ceph C” value [2, 26] of the same compound?
**A.** The value was 10,140 mcg/g.

**Q.** What about the “Des Ceph C” value [2, 26] of the same compound?
**A.** The value was 780 µg/g.

**Q.** What about the “Des Ceph C share … (head is drawing 3)” value [2, 26] of the same compound?
**A.** Its value is 7.1.

**Q.** What about the “Ceph C” value [2, 27] of the same compound?
**A.** Its value is 8,225 mcg/g.

**Q.** What about the “Des Ceph C” value [2, 27] of the same compound?
**A.** The value was 770 µg/g.

**Q.** What about the “Des Ceph C share … (head is drawing 4)” value [2, 27] of the same compound?
**A.** The value was 8.5.

**Q.** Which “desacetylcephalosporin C of the total ceph nucleus (head is drawing 8)” value (shortened to “desacetylcephalosporin C”) ([3]; time 74 hours (before addition)) does the source give for `CCCCOP(OCCCC)OCCCC` here?
**A.** Its value is 4.2%.

**Q.** What about the “desacetylcephalosporin C” value ([3]; time 85 hours (before addition)) of the same compound?
**A.** Its value is 3.7%.

**Q.** What about the “desacetylcephalosporin C” value ([3]; time 98 hours) of the same compound?
**A.** Its value is 4.3%.

**Q.** What about the “desacetylcephalosporin C” value ([3]; time 109 hours) of the same compound?
**A.** The value was 4.0%.

**Q.** And the “desacetylcephalosporin C” value ([3]; time 122 hours)?
**A.** The value was 4.6%.

**Q.** What about the “desacetylcephalosporin C” value ([3]; time 133 hours) of the same compound?
**A.** Its value is 5.8%.

**Q.** And the “desacetylcephalosporin C” value ([3]; time 146 hours)?
**A.** Its value is 6.9%.

**Q.** What about the “desacetylcephalosporin C” value ([3]; time 157 hours) of the same compound?
**A.** The value was 7.9%.

**Q.** And the “desacetylcephalosporin C” value ([3]; time 170 hours, control run 15.0)?
**A.** Its value is 9.1%.
